AlphaSeq binding of Ab-91 heavy chain variants to a spike HR2 peptide

Data: MIT Lincoln Laboratory AlphaSeq set, Engelhart et al. 2022, doi:10.1038/s41597-022-01779-4, as distributed in FLAb.

Antigen: PDVDLGDISGINAS, a 14-residue peptide of the SARS-CoV-2 spike HR2 region.

Ab-91 is the parent antibody, in scFv form: VL, then a (GGGGS)3 linker, then VH. The light chain is unchanged in all variants.
VL: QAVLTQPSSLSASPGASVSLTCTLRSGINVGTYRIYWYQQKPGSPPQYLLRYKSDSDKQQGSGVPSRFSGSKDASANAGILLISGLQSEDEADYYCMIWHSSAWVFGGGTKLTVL
VH: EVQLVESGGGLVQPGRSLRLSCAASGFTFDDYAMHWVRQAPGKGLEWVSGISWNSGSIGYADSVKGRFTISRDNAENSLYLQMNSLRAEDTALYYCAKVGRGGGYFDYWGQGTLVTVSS

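In library AAYL51, one, two or three CDR residues were substituted; doubles and triples were drawn at random. AlphaSeq pools MATa yeast showing the antibodies with MATalpha yeast showing the peptide. Binding brings cells together so that they mate, and sequencing counts the barcode pairs among the diploids. Read counts were normalised to the haploid input and turned into Kd by a linear fit to BCL2-family pairs of known affinity, for each replicate. The assay was run in three technical replicates.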

Positions count from residue 1 of the parent VH; D31Q puts Q in place of D. This list gathers variants with a substitution at D31 (VH, numbered from residue 1). Each Kd is an estimate from the mating assay, the geometric mean of the replicates in which the pair was seen; lower is stronger. "no signal" means that the variant was in the library but no mating with the target was seen in any replicate; the authors take this as a sign of poor binding, and no number exists.

* D31Q+Y60V -> no signal (0 of 3 replicates)
* D31T+G102L+Y108W -> 1.4 µM (3 of 3 replicates)
* D31W+I51A+K65M -> no signal (0 of 3 replicates)
* F29L+D31P -> 3.9 µM (3 of 3 replicates)
* D31I+M34P+V99A -> no signal (0 of 3 replicates)
* D31N+M34R+W53H -> 150 µM (3 of 3 replicates)
* D31M+S52I+V99K -> no signal (0 of 3 replicates)
* D31G+G50P+G59H -> no signal (0 of 3 replicates)
* F27V+D31I+S52K -> no signal (0 of 3 replicates)
* F27T+D31C+I58V -> 73 µM (2 of 3 replicates)
* D31Y+H35F+W53C -> no signal (0 of 3 replicates)
* F27T+D31M+G103A -> no signal (0 of 3 replicates)
* G26N+D31W+A33P -> no signal (0 of 3 replicates)
* T28K+D31C+G103W -> 150 nM (3 of 3 replicates)
* D30T+D31W+D107E -> 6.4 µM (3 of 3 replicates)
* D31I+Y32A+M34H -> 65 nM (3 of 3 replicates)
* D31G+N54A+V99H -> 7.3 µM (2 of 3 replicates)
* F27K+D31I+I51Q -> 61 µM (2 of 3 replicates)
* D31F+Y32T+N54H -> 2.6 µM (3 of 3 replicates)
* D31N+Y32K+I51N -> no signal (0 of 3 replicates)
* D31R+I51Y -> no signal (0 of 3 replicates)
* D31S+G56I+V64E -> 130 µM (2 of 3 replicates)
* D31W+G50M+V64H -> no signal (0 of 3 replicates)
* D31I+A33N+K65Q -> 9.2 µM (1 of 3 replicates)
* D31K+W53S -> 35 nM (3 of 3 replicates)
* T28A+D31K+R101W -> 3.7 nM (3 of 3 replicates)
* D31M+V99M+Y105C -> 3.5 nM (3 of 3 replicates)
* D31E+H35Q+V64C -> no signal (0 of 3 replicates)
* D31F+M34R+N54P -> no signal (0 of 3 replicates)
* T28E+D31E+M34G -> no signal (0 of 3 replicates)
* D31H+V99A+G102Y -> no signal (0 of 3 replicates)
* T28D+D31Q+A33D -> 3.5 µM (1 of 3 replicates)
* D31M+I51H+G104M -> 42 µM (1 of 3 replicates)
* D31E+G56V+Y60D -> 35 µM (3 of 3 replicates)
* D31L+G59V+G103F -> no signal (0 of 3 replicates)
* D31C+S55W+R101C -> 28 µM (1 of 3 replicates)
* D31N+G50L+Y60W -> no signal (0 of 3 replicates)
* F27R+D31H+G104Q -> no signal (0 of 3 replicates)
* D31A+G104P -> 54 µM (1 of 3 replicates)
* D31A+S57C+S63G -> 85 µM (2 of 3 replicates)
* D31C+W53C+A61D -> 61 µM (2 of 3 replicates)
* D31T+V99F+F106L -> no signal (0 of 3 replicates)

The closing 4 entries, repeated:

| changes | apparent Kd | seen in |
|---|---|---|
| D31A+G104P | 54 µM | 1 of 3 |
| D31A+S57C+S63G | 85 µM | 2 of 3 |
| D31C+W53C+A61D | 61 µM | 2 of 3 |
| D31T+V99F+F106L | no signal | 0 of 3 |

Parent in this assay: reference entry 72 nM, copy in this library 7.5 nM. As a blank, each scFv also met three strains without target: over library AAYL51, 21% of these pairings were detected, typically at 34 µM and seldom below 1.8 µM.